The pKi is the negative decadic logarithm of the Ki, by convention in mol/L.

Amino acid sequences for entries named in this document (tags omitted).
UniProt P34969, whole entry: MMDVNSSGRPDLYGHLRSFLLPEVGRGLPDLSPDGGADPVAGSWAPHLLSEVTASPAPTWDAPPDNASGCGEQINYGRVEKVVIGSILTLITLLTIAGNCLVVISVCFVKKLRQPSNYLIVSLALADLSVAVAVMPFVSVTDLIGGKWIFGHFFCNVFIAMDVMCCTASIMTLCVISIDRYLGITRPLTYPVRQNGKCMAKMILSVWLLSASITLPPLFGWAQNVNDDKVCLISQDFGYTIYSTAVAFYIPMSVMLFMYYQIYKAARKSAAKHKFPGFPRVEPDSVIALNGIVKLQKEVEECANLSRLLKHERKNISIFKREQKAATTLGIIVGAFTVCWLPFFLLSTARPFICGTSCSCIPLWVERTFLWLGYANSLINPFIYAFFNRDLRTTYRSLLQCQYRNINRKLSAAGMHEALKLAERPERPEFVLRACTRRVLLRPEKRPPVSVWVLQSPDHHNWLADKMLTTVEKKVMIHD

This test has as its target 5-hydroxytryptamine receptor 7 (Homo sapiens, UniProt P34969).

pKi: −log10 of the molar value.

In the case of `CCCN(CCC)C1CCc2cccc(O)c2C1` (stereo unspecified), the pKi was 6.33.

The record behind these values is BindingDB's records for PubMed 8226867 (Synaptic Pharmaceutical, 1993).
